This passage reports Kd and IC50 results from publication PMC8113980.

Like-named read-outs stand apart in the source and are kept apart here.

For assay [1], the target named is Human wildtype tau protein, 441-amino acid isoform (2N4R), nonphosphorylated monomer (human) (UniProt P10636). As to the kind of experiment: SPR; ProteOn XPR36, GLC chip; tau monomers and tau fibrils immobilised by amine coupling on parallel surfaces; Aβ1–42 monomer or oligomer-enriched solution diluted to 10 μM and injected for 120 s at 30 μl/min; running buffer 10 mM PBS, 150 mM NaCl, 0.005% Tween-20; KD estimated assuming oligomer concentrations of 4 to 20 nM and an aggregate size of 400 kDa, possibly affected by avidity.

Assay [2] deals with Aβ_(1–42) high–molecular-weight oligomers (oligomer-enriched solution) (UniProt P05067). The experiment in a line: SPR; competition in solution: Aβ1–42 oligomer-enriched solution diluted to 1 μM in PBS, incubated 10 min with tau (up to 100 nM), injected for 120 s over immobilised anti-Aβ antibody 4G8; oligomer-specific signal read at the end of dissociation. In general terms: Surface plasmon resonance follows binding to a sensor surface in real time, without labels.

Assay [3] shares this target. The assay is described as above. This is another data set of the same source.

In the case of “Aβ_(1–42) high–molecular-weight oligomers (oligomer-enriched solution) (from UniProt P05067 672-713) (complex)”, the Kd in assay [1] is under 1 nM. One may read the IC50 as the concentration at which inhibition is half-maximal. The low end stands for greater potency in that assay, the high end for weaker potency in that assay. Regarding “Human wildtype tau protein, 441-amino acid isoform (2N4R), nonphosphorylated monomer (from UniProt P10636-8 1-441) (natural protein)”, the IC50 in assay [2] came to 3.9 nM; in assay [3], 3.8 nM.
